Experimental findings from patent US11287428B2, “PD1 and PDL-1 expression during progression from myelodysplastic syndrome to acute myelogenous leukemia” (H. Lee Moffitt Cancer Center and Research Institute, Inc., priority 2016, dated 2022) are described below.

The experiment has as its system CD71 from BM MNC. In words: Apoptosis of BM cells in rhPD-L1 coated wells. To be noted: rhPD-L1 coated wells of 24-well plate, 24 h. It is filed as cell-based, human. On the procedure: BM cells were placed in rhPD-L1 coated wells of 24-well plate for 24 h.

As to “rhPDL1: recombinant human PD-L1 coated on wells of 24-well plate”, the “apoptosis of CD71 from BM MNC” value was “increase apoptosis”.
